Results reported in patent US20250009694A1, “METHODS AND PHARMACEUTICAL COMPOSITIONS FOR REPAIRING INTESTINAL MUCOSAL” (INSTITUT NATIONAL DE LA SANTÉ ET DE LA RECHERCHE MÉDICALE, priority 2021, published 2025).

Assays:
[1] = test system: DSS-colitis in WT mice; assay: DSS-induced acute colitis in WT C57BL/6 mice after pre-treatment; conditions: mouse, in vivo
[2] = test system: colon organoids from WT mice
[3] = test system: VIVA colon organoids

CC(C)(CO)[C@@H](O)C(=O)NCCC(=O)NCCSSCCNC(=O)CCNC(=O)[C@H](O)C(C)(C)CO [pantethine]
tolerance to DSS-colitis [1]: enhanced tolerance to DSS-colitis
protection against colitis ([1]; po): same protective result
cell death following TNF exposure (% zombie red positive cells) [2]: significantly reduced the mortality rate
expression of epithelial genes Muc2 and antimicrobial peptide Ang4 [2]: further enhanced
Muc2 and Ang4 expression [3]: stimulating effect
cell death following TNF exposure (% zombie red positive cells) [3]: almost completely abolished
